Measurements published in patent US12310973B2, “Administration and dosage of diaminophenothiazines” (WisTa Laboratories Ltd., priority 2016, dated 2025).

The chains behind the UniProt entries cited, without tags or fusion partners.
UniProt P08183, whole entry: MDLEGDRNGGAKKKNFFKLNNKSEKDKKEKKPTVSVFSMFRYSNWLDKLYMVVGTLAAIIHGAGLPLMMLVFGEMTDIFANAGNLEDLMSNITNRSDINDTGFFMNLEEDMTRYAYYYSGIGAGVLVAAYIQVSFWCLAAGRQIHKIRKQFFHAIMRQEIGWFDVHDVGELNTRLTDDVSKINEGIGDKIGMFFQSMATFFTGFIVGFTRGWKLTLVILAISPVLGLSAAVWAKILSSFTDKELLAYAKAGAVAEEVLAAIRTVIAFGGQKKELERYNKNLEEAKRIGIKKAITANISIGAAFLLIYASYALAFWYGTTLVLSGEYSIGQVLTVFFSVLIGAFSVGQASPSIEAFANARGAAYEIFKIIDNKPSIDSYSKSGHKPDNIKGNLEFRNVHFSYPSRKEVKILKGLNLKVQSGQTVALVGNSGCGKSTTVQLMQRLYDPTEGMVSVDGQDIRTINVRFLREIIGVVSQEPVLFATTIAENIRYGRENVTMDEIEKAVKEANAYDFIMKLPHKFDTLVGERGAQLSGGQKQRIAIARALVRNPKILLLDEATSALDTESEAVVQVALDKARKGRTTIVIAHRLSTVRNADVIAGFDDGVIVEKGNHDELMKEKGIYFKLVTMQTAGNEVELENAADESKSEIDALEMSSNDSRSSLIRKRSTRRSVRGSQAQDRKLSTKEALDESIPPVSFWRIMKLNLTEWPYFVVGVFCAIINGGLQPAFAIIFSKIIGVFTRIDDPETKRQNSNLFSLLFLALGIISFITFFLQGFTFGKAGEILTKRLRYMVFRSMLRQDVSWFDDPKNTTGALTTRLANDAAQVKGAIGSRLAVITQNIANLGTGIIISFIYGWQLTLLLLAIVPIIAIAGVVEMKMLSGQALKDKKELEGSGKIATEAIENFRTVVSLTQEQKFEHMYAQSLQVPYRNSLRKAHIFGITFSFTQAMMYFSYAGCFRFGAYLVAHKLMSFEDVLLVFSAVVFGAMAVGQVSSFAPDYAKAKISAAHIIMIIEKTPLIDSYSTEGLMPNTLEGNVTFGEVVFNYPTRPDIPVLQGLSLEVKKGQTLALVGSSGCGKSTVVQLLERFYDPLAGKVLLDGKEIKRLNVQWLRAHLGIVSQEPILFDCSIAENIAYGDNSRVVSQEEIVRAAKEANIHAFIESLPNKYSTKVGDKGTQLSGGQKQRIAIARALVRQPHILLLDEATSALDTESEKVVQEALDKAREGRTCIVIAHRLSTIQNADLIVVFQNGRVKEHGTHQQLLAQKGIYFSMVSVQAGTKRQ

Molecular target: multidrug resistance protein 1 (MDR1) (Homo sapiens, UniProt P08183)
Conditions: unpublished data

Substance: methylthioninium [MT]
- Substrate for MDR1 pathway: pH-dependent substrate
